Ab-14 light chain CDR variants: yeast mating affinities

Reference: Li et al. 2023, doi:10.1038/s41467-023-39022-2. File: FLAb, binding data.

The target is the same throughout: PDVDLGDISGINAS, from the HR2 region of SARS-CoV-2 spike.

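Phage display of a naive human antibody library on the peptide gave the parent. This is the validation round: designs drawn from the data on random variants, tested in the same kind of assay. Several design methods are mixed in this list. The scFvs were displayed on barcoded MATa yeast, the peptide on MATalpha yeast. Pairs that bind mate more often; barcode pairs of the diploids are counted by sequencing. Read counts were normalised to the haploid input and turned into Kd by a linear fit to BCL2-family pairs of known affinity, for each replicate. The assay was run in six technical replicates.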

The variants keep the heavy chain, the linker and the frameworks of Ab-14 (scFv order VH, a (GGGGS)3 linker, VL).
VH: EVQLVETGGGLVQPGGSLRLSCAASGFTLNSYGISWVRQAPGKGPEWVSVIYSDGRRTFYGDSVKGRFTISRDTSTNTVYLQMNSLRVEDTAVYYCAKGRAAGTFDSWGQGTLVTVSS
VL: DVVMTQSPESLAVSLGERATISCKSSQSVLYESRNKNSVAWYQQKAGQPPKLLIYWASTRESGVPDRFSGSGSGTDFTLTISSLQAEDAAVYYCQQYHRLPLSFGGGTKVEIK

Variants are written as CDR1, CDR2 and CDR3 of the light chain (limits as in the source). Parent: KSSQSVLYESRNKNSVA, WASTRES, QQYHRLPLS. This list holds designs with more than six substitutions. Values are apparent Kd, the geometric mean of the replicates that gave a signal; lower means stronger binding. A pair that was not seen in any replicate is written "nd"; this usually means weak binding, but a binder can also be missed. The parent sequence was in this pool as ten entries: three were never detected, three once, and four in most replicates, with averages from 2.2 nM to 240 nM. Three control strains display no target. For all light chain designs, 4% of the pairings with them gave a signal, with a median of 430 nM and one signal in twenty below 38 nM, so weak values seen in few replicates may be background. The range of this assay differs from that of the first round, and the authors advise against merging the two. In the paper, a design with two or fewer of six values counts as a poor binder.

* IISQSTLGEYHNKNSVA | QTSERGS | QQYDRLPLS -> 3.8 nM (6 of 6 replicates)
* KLSQVTHSESRNKNSIA | EMVTREH | QQYDRLPLS -> 48 nM (6 of 6 replicates)
* RLTEHESESKAADASVA | DANTRGD | QQYHRLPLF -> 7.7 nM (6 of 6 replicates)
* KFEQLDGYEQRNKNSVA | NASQRED | QQYHRLPLS -> 1.1 nM (6 of 6 replicates)
* MISQLMNLGQFAINSVA | QAEIRNN | QQYDRLPLM -> 61 nM (5 of 6 replicates)
* KLVGDMQEDKNPSENIA | EESSVEQ | QQYSRLPLE -> 120 nM (1 of 6 replicates)
* SIRQVGCDNYRNHSNIA | DATQIEK | QQYSMLPLS -> 7.3 nM (6 of 6 replicates)
* MFSQLMEYGSRYKNSVA | QASVRED | QQYHWLPLS -> nd (0 of 6 replicates)
* MIEQGENEQEQHKNAIA | SGHERPR | QQYYKLPLV -> 4.3 nM (6 of 6 replicates)
* HITMGMYVKGRHHSSIA | QAETRAK | QQYDRLPLM -> 67 nM (6 of 6 replicates)
* KLSKMVMMESRNKNSVA | SASTREE | QQYHRLPLS -> 760 pM (6 of 6 replicates)
* SLGLVTMLEYAGRNNVA | NNSTREA | QQYDRLPLS -> 93 nM (6 of 6 replicates)
* KITTTMRFEQKNSNNIA | EVSTRSK | QQYVRLPLA -> 4.3 nM (6 of 6 replicates)
* KLSQSFLYESMNKNSVA | HASQRIW | QQYHRLPLS -> 3.1 nM (6 of 6 replicates)
* KLSQSHLYEERNKNNVA | SASQREW | QQYHRLPLS -> 290 pM (6 of 6 replicates)
* MLSEMLHMLGTKKNSIA | DLVMRAN | QQYHRLPLS -> 92 nM (6 of 6 replicates)
* ALYDVTRMESNKKNSIA | DMSTRES | QQYHRLPLS -> 2.1 nM (6 of 6 replicates)
* KLMNSLDAFHSWEDNIA | NTEIKVA | QQYYHLPLT -> 39 nM (6 of 6 replicates)
* KLQGSVMMLSRNDNSVA | DASTRES | QQYHRLPLS -> 1.3 nM (6 of 6 replicates)
* KIGMTLNTLMHQKNNVA | DLVMRES | QQYHRLPLS -> 2.2 nM (6 of 6 replicates)
* KIGTGTNGEKFQSNSVA | QTSTREE | QQYHRLPLS -> 1.1 nM (6 of 6 replicates)
* QLYELSVELSGKTHSVA | DNSTRGD | QQYFRLPLE -> 13 nM (6 of 6 replicates)
* IIDAIMFHGLKNASSIA | QASERLN | QQYHHLPLT -> 200 nM (6 of 6 replicates)
* MISDLLMYGSRNKNSVA | DLSTRGS | QQYHRLPLS -> 4.2 nM (6 of 6 replicates)
* KISMLYNFASTNKNSIA | EMTTREA | QHYHRLPLS -> 12 nM (6 of 6 replicates)
* MISDLTMYGSRNKNSVA | DLSYRGS | QQYHRLPLS -> 1.8 nM (6 of 6 replicates)
* RLYNQGTEQIQHANSIA | DRDEVDS | QQYAHLPLS -> 17 nM (6 of 6 replicates)
* KLSMTHEMEHVNRNSVA | ELVTRIS | QQYNRLPLS -> 5.0 nM (6 of 6 replicates)
* SLAESVHMESRNKNSVA | DNSTREY | QHYHRLPLS -> 31 µM (1 of 6 replicates)
* KESQSEPYESANKNSVA | NAMQRMS | QQYHRLPLS -> 700 pM (6 of 6 replicates)
* KLSMQEMMESRNKNSVA | QANTREE | QQYHRLPLS -> 450 pM (6 of 6 replicates)
* ALELFEYQMMKDINSIA | NTEYKTN | QQYVRLPFS -> 7.6 nM (6 of 6 replicates)
* KLYQAMGYLSRNKNSIA | DMSRREN | QQYHRLPLS -> 960 pM (6 of 6 replicates)
* ALSMSDLMESRNWNSVA | HASTREE | QQYHRLPLS -> 2.4 nM (6 of 6 replicates)
* STFFHDDQKQEESNNIA | HASLRAV | QQYMHLPLV -> 3.2 nM (6 of 6 replicates)